# Experimental data reported in patent EP3235511A1, “SULPHONAMIDE COMPOUNDS FOR USE IN THE TREATMENT OF HHV-8-ASSOCIATED DISEASES” (UNIVERSITA' DEGLI STUDI DI CAGLIARI, priority 2016, dated 2017).
# The chains behind the UniProt entries cited, without tags or fusion partners.
# UniProt Q00987, whole entry: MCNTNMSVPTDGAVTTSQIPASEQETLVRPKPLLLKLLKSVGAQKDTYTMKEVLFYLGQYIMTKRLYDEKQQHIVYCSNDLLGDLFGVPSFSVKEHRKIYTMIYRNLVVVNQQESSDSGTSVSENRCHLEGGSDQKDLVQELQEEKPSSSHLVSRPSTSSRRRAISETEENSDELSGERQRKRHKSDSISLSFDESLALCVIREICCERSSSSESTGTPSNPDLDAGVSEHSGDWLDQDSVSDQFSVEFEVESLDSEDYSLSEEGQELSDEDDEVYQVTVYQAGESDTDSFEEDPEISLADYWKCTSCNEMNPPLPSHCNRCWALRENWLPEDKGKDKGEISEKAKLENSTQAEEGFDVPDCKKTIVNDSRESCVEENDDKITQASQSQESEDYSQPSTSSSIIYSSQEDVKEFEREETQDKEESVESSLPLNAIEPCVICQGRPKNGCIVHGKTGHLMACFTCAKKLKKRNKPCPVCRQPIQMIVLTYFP
# Target: T1, MDM2-p53 complex (Homo sapiens, UniProt Q00987)
# T1 construct: purchased Sigma
# Assay: ELISA-based P53-MDM2 binding assay
# Conditions: compound added before the formation of the complex; 50 µg/mL
# Experimental: In short, 96-well ELISA micro-plates (from Greiner Bio One, Austria) were coated for incubation overnight with 2 µg/mL p53 (human recombinant from Sigma) in PBS at 4 °C. The next day, the coating buffer was removed and the plates were incubated with Chemi-Blocker blocking buffer (from Merck-Millipore, Italy) for 2 hours at room temperature to block non-specific protein binding sites on the plate. […] The compounds under test were dissolved in DMSO (dimethyl sulfoxide, 5 mg/mL stock solution) and diluted in blocking buffer to obtain a final concentration of 50 µg/mL. The total incubation time of GST-MDM2 was 1 h. […] The absorbance was measured with a Microtiter plate reader (Model 680, from Bio-Rad, Hercules, CA) equipped with a 450 nm filter and the respective luminescence units (RLU) were measured. The inhibition percentage of the p53-MDM2 complex was calculated as follows: […]
# Data are expressed as µg/mL ± SE average of three independent experiments.
compound,measurement,value
COc1ccc(C2=NC(c3ccc(Cl)cc3)C(c3ccc(Cl)cc3)N2C(=O)N2CCNC(=O)C2)c(OC(C)C)c1 (stereo not shown) [nutlin 3],inhibition of MDM2-p53 complex formation,62%
